According to patent US11311504B2 (priority 2012, dated 2022):
Values joined by “and” are separate entries in the source; they are usually repeats but may differ in a detail not shown here. Equal values may be shown once. Read-outs that look alike come from different tables or passages of the source.

Columns and labels:
rat = settings: applied alone
[1] = system: male albino rats (Sprague Dawley); settings: alone, 0.00464 mg/kg i.v., n = 10, Mean SEM

**Q.** How did the “timepoint of peak effect” value (rat) turn out when `CN(C)[C@]1(c2ccccc2)CC[C@]2(CC1)OCCc1c3cc(F)ccc3[nH]c12` was run?
**A.** 15 min p. appl.

**Q.** What about the “ED50 (95% CI)” value (rat; i.v., 15 min p. appl. (peak effect)) of the same compound?
**A.** 3.364 (2.896-3.815) μg/kg and 3.36 μg/kg

**Q.** And the “% MPE (Maximum possible effect)” value ([1]; 30 min. post administration)?
**A.** 12.2 ± 2.69 % MPE

**Q.** And the “% MPE (Maximum possible effect)” value ([1]; 60 min. post administration)?
**A.** 10.6 ± 3.51 % MPE

**Q.** What about the “% MPE (Maximum possible effect)” value ([1]; 90 min. post administration) of the same compound?
**A.** 2.88 ± 2.27 % MPE
